US7166733B2, “O,O'-Amidomalonate and N,O-Amidomalonate platinum complexes” (priority 2000, dated 2007)

Test: Platinum release from PBS
Assay type: physicochemical
Conditions: 37° C.
Experimental: The percent of small platinum species released over time was measured by dissolving about 30 mg of the polymer-platinum conjugate in 15 mL of phosphate buffered saline (10 mM phosphate, 123 mM Cl^−) and incubating the solution at 37° C. in a water bath. At indicated times, 2.0 mL aliquots were transferred to a centrifugal filter with a 3 kDa nominal molecular weight cutoff (Centricon YM-3 from Millipore) and spun until >1.5 mL of filtrate had accumulated. The timed filtrates and the original solution were analyzed for platinum by ICP-OES. The percent of small Pt species released was determined using the formula: ((ppm Pt in filtrate)/(ppm Pt in stock solution))×100.

poly(HPMA)-GFLG-Ama=Pt=DACH, N,O—Pt chelate [Example 6]
Pt release in PBS (3 hours): 2.0%
Pt release in PBS (24 hours): 2.1%
